Laboratory results reported in patent publication US9539257B2, “Method of treating cancer” (NOVARTIS AG, priority 2009, dated 2017).
Read-outs that look alike come from different tables or passages of the source.

Tests used:
UGT1A1*28 [1] = test system: UGT1A1*28
UGT1A1*28 [2] = test system: UGT1A1*28; remark: listed apart in the source
Description: The two phenotypes that were evaluated were maximum on-treatment liver chemistry values for ALT and TBL with respect to the upper limit of normal. These phenotypes were evaluated separately in case-control and quantitative trait analyses and jointly in a combined case-control analysis. ALT and TBL cases were defined as maximum on-treatment elevations of ≧3×ULN and ≧1.5×ULN, respectively, and control subjects were defined as maximum on-treatment ALT or TBL of ≦1×ULN.
2) As genetic understanding of drug-induced liver injury is limited, a comprehensive drug induced liver injury (DILI) panel, developed by GSI in consultation with external liver experts was also evaluated. This DILI panel is comprised of approximately 6500 single nucleotide polymorphisms (SNPs) in 270 gene regions derived from the postulated mechanisms involved in the pathophysiology of DILI. In both approaches, genetic variation in each gene region was investigated using tag SNPs selected from the International HapMap project and/or high density SNP coverage consisting of all functional SNPs with a previously recorded genotype to phenotype correlation. […] Evaluation of HLA genes focused on a subset of the total number of patients consisting of all ALT cases (N=47) and matched controls (N=47).

CS(=O)(=O)CCNCc1ccc(-c2ccc3ncnc(Nc4ccc(OCc5cccc(F)c5)c(Cl)c4)c3c2)o1 [lapatinib, N-(3 chloro-4-{[(3-fluorophenyl)methyl]oxy}phenyl)-6-[5-({[2 (methylsulfonyl)ethyl]amino}methyl)-2-furanyl]-4-quinazolinamine bis(4 methylbenzenesulfonate)monohydrate]
combined ALT/TBL cases carrying UGT1A1 TA7/TA7 genotype (UGT1A1*28 [1]; restricted baseline (ALT and TBL <=1xULN at baseline)): 1/6
odds ratio (UGT1A1*28 [1]; two copies of TA7 as risk group, TBL cases vs controls, exact 95% CI 3.23-42.16): 12.06
combined ALT/TBL cases carrying UGT1A1 TA7/TA7 genotype (UGT1A1*28 [1]; unrestricted baseline (ALT and/or TBL >1xULN at baseline)): 4/6
combined ALT/TBL cases that were UGT1A1*28 TA7/TA7 homozygotes (UGT1A1*28 [2]; exploratory, 5/13 combined cases): 38%
odds ratio (95% CI) of being a case than a control (UGT1A1*28 [2]; patients homozygous for UGT1A1*28 vs other genotypes, TBL elevation): 10.7 (5.3-21.6)
risk of lapatinib induced hyperbilirubinemia, (TA)7/(TA)7 genotype relative to (TA)6/(TA)6 and (TA)6/(TA)7 (UGT1A1*28 [2]; post-hoc investigation, AMBC trials, monotherapy or combinations): statistically significant increase
